Ab-14 light chain CDR variants: yeast mating affinities

The target is the same throughout: PDVDLGDISGINAS, from the HR2 region of SARS-CoV-2 spike.

Ab-14 is the parent antibody, in scFv form: VH, then a 15-residue (Gly4Ser)3 linker, then VL. The heavy chain is unchanged in all variants.
VH: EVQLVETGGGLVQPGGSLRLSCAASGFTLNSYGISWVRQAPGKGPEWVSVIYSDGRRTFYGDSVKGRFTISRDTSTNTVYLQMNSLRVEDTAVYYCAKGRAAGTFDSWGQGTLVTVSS
VL: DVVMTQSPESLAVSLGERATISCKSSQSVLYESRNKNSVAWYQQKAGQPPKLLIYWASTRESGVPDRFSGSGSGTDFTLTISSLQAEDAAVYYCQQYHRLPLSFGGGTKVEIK

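The variants were designed computationally from a first round of random CDR variants and then made and measured. Several design methods are mixed in this list. The assay is AlphaSeq: two haploid yeast populations carry antibody and antigen on their surface. Mating (16 h, 30 °C) was followed by selection of diploids and sequencing of their barcodes. The ratio of observed to expected reads was calibrated, replicate by replicate, on BCL2-family standards whose Kd was known from biolayer interferometry. The assay was run in six technical replicates.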

The parent's light chain CDRs are KSSQSVLYESRNKNSVA, WASTRES, QQYHRLPLS; each variant's own CDRs replace them letter for letter. Variants here have more than six changes. Each Kd is an estimate from the mating assay, the geometric mean of the replicates in which the pair was seen; lower is stronger. A pair that was not seen in any replicate is written "no signal"; this usually means weak binding, but a binder can also be missed. Nonspecific signal, from three strains lacking the peptide, appeared in 4% of pairings of all light chain designs, centred on 430 nM (5% of these signals below 38 nM); values are not corrected for it. The control count says in how many pairings with the empty strains this scFv gave a signal.

CDR-L1,CDR-L2,CDR-L3,Kd,detected,signal with controls
KLSMSVLYEDRHKNSVA,NASKRFS,QQYHRLPLS,15 nM,6/6,1/18
IVSQLMLWGYHAKNSIA,EAQTRDN,QQYDRLPLF,10 nM,5/6,0/18
KQQFSSGGGSRNKNSVA,EASTRCS,QQYHRLPLS,3.1 nM,6/6,2/18
KSQQGMDYESRNDASVA,AASTRES,QQYHRLPLS,3.6 nM,4/6,0/18
KISQMSSIESITHNSVA,QTSTREK,QQYDRLPLS,2.2 nM,6/6,2/18
KLRQVTGYESYNKNSVA,QTSTRAQ,QDYHRLPLS,10 nM,6/6,1/18
QIYQAMHTLSQIKDNVA,DVNERGS,QQYYRLPLS,930 pM,6/6,0/18
HFSGGMNQGSSMEHNIA,EGTYAEE,QQYARLPLQ,10 nM,6/6,0/18
IVSQLMLWGWHAKNSIA,EAQTRAN,QQYDRLPLF,310 nM,5/6,1/18
KISMYLNKEKKAGNNVA,EMVNREA,QQYDRLPLS,3.0 nM,6/6,2/18
KLQFSWWYESRNKNAVA,SASQREV,QQYHRLPLS,10 nM,6/6,1/18
ALSQSMDMTSRNKNSVA,DLTTREN,QQYHRLPLS,460 pM,6/6,1/18
NFSQMVLSGSTLKNSVA,HASTREE,QQYHRLPLI,4.4 nM,6/6,1/18
KLSQSVEYESRQKNSVA,NASTRMQ,QQYHRLPLL,2.7 nM,6/6,3/18
HLLYAGNTGSLYDNNVA,EGETVLD,QQYFRLPIT,78 nM,6/6,1/18
MISQLYNMGQFAINSVA,QAELRNE,QQYDRLPLA,24 nM,3/6,0/18
KIEGSMLYESRNKNSIA,NASTREV,QQYHRLPLS,530 pM,6/6,0/18
KLGDMVHTESRNKNNIA,DMRTRES,QQYYRLPLS,750 pM,6/6,2/18
MLSQMTGWGMKASNSVA,QASTRFE,QQYHRLPLI,49 nM,6/6,0/18
KLSGSDLYQSRNSNAVA,EASQREQ,QQYHRLPLS,1.6 nM,6/6,0/18
TLTQVTMVESYLKNSVA,QASTRLE,QDYHRLPLS,8.6 nM,6/6,0/18
TISQLMNMGSFAISSVA,QASIRNS,QQYDRLPLM,9.8 nM,6/6,2/18
KIGMSLNQLMHKKNNVA,DLVERET,QQYHRLPLS,2.8 nM,6/6,3/18
KLSISYLFESQEKNSIA,ENSTREA,QHYHRLPLS,no signal,0/6,1/18
TGNVELAQGVHEMNNVA,DGDQKED,QQYYRLPLA,3.4 nM,6/6,2/18
HITMGMYVHGRHHSSIA,QAEERAK,QQYDRLPLM,370 nM,4/6,0/18
MMSQVTGSGQRHRNNVA,QTSTREE,QQYDRLPLI,2.9 nM,6/6,0/18
KISMSYRYESENKNSIA,ELVTRMS,QQYHRLPLS,9.9 nM,6/6,0/18
MISDLMLYGSRARNPIA,NAETREY,QQYHRLPLE,3.5 nM,6/6,2/18
KLSQSQLYLSRNMNAVA,NASQRMS,QQYHRLPLS,350 pM,6/6,4/18
KLLQNVMTEGRMRNNVA,HMTMRED,QQYWRLPLS,17 nM,6/6,3/18
KLSQMVDYLSRNMNNVA,NASTRES,QDYHRLPLS,1.8 nM,6/6,1/18
MLKMENEEFNQDKNSVA,EAVEKES,QQYHRLPII,49 nM,6/6,2/18
KLSQGTYGLTQIDSNVA,HDEMRWQ,QQYDKLPLI,no signal,0/6,1/18
KIGQQVTYESTVKNAIA,QMTTREE,QQYHRLPLS,2.0 nM,6/6,0/18
HISQMWMLESHNKNNVA,EESTRED,QSYFRLPLS,650 pM,6/6,0/18
NVDISQNTNYNHKANVA,DHDERVI,QQYSRLPLS,8.5 nM,6/6,1/18
KFQQESNNMNDIQNSVA,DESMVEY,QHYWRLPLT,no signal,0/6,0/18
KFYGSHLYESRMENSVA,NASQRES,QQYHRLPLS,2.1 nM,6/6,1/18
MISQLGNMGQFAINSVA,QASLRND,QQYDRLPLV,22 nM,6/6,3/18
SLAMLLNQVYAYGSNIA,NAQVLVY,QQYYRLPLV,290 nM,1/6,0/18
MISQLINMGSFAINSVA,QASLRCN,QQYDRLPLA,no signal,0/6,0/18
KCKQSSDYESRNFNSVA,NASTRCS,QQYHRLPLS,1.9 nM,6/6,0/18
KLTMITGLEKVSTNNVA,EMETRER,QQYNRLPLA,1.1 nM,6/6,0/18
KLAMILSMWADTYHGVA,DANHKAD,QQYNRLPLS,3.1 nM,6/6,1/18
MISQLYNMGSFAINSVA,QASERNE,QQYDRLPLI,12 nM,6/6,0/18
KISMYLNKEKKEGNNVA,EMVTREA,QQYDRLPLS,5.7 nM,6/6,0/18
HINGLEDQFPDSWNSIA,QETLRNL,QQYFSLPLS,290 nM,6/6,1/18
KLVGVSDNDMNPSHNIA,DVSMVDN,QQYHRLPLD,5.4 nM,6/6,1/18
FFSQGFYMEENMAHNVA,DNEQRTN,QQYDQLPLV,40 nM,6/6,1/18
KLEQSTSYESRNCNSVA,NASVRES,QQYHRLPLS,4.4 nM,6/6,1/18
HLLQTVMWGQTRKNSVA,HAVTREN,QQYHRLPLS,12 nM,6/6,1/18
KVMQLQDYESRNKNSVA,HASQREQ,QQYHRLPLS,1.7 nM,6/6,1/18
SFGQTVMYESTMRNNVA,QTSTRES,QQYDRLPLS,1.2 nM,6/6,0/18
QLGAVQDMTSKNKNSVA,EQNTREN,QQYHRLPLS,2.2 nM,6/6,1/18
KLWAYFQGLEQKMQNVA,DGSYRST,QQYDRLPLS,16 nM,5/6,0/18
KGQQQQQYESRNWNSVA,NASYRES,QQYHRLPLS,1.5 nM,6/6,0/18
KLGDMVHTLSRNKNSIA,DLRTRES,QQYYRLPLS,1.1 nM,6/6,1/18
KLTAAQNDYGQNYSNIA,EEVNSLQ,QQYHHLPLS,440 nM,2/6,0/18
MVNQHDEGFKGVKDNIA,NAATKEG,QHYGRLPLS,25 nM,6/6,2/18
MLSEVLHMLGVAKNSIA,DLVLRAN,QQYHRLPLG,150 nM,1/6,0/18

The first 4 variants above that were never detected:

CDR-L1,CDR-L2,CDR-L3,Kd,detected,signal with controls
KLSISYLFESQEKNSIA,ENSTREA,QHYHRLPLS,no signal,0/6,1/18
KLSQGTYGLTQIDSNVA,HDEMRWQ,QQYDKLPLI,no signal,0/6,1/18
KFQQESNNMNDIQNSVA,DESMVEY,QHYWRLPLT,no signal,0/6,0/18
MISQLINMGSFAINSVA,QASLRCN,QQYDRLPLA,no signal,0/6,0/18

A sequence measured in both rounds can read differently, since the two assays cover different ranges. In the paper, a design with two or fewer of six values counts as a poor binder. The parent sequence was in this pool as ten entries: three were never detected, three once, and four in most replicates, with averages from 2.2 nM to 240 nM.

Data: MIT Lincoln Laboratory AlphaSeq set, Li et al. 2023, doi:10.1038/s41467-023-39022-2, as distributed in FLAb.